Bioassay records: PubChem, National Center for Advancing Translational Sciences (NCATS)
Hits are enriched below; roughly 13% of the tested compounds scored in any of these assays.
miR-21 FLuc: raises the signal of a miR-21 reporter | Potency, µM (doses to about 38.3 µM), for inactives: top-dose reporter change, positive = more light | HeLa miR-21 FLuc reporter, luciferase, 48 h | AID 2288 | 340,000 tested, under 10 active; active = well fitted rising curve with a large enough effect; inconclusive = small, poorly fitted or top-dose-only effect; inactive = no such curve, though single readings can be large or run the other way;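 also: % of control where 0% means no effect; miR-21 action dims this reporter so a rising signal means less miR-21 action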
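Using DMEM plus 10% FBS, HeLa miR-21-FLuc cells are incubated with test compounds (final up to about 40uM) for 48 hours; firefly luciferase signal is then imaged following reagent-mediated lysis.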
LMNA splice mod: modulators of lamin A splicing; HeLa LMNA splicing GFP/RFP minigene ratio, 48 h; Potency, µM (titrated, usually from 46.1 µM), without a hit: top-dose ratio change, negative = inhibition, actives largely listed as inhibitors; 200,000 compounds, 0.01% hits; AID 1487; active = well fitted inhibition curve with a large enough effect in the signal ratio, with a control signal flat, not every such curve was filed as active; inconclusive = small, poorly fitted or top-dose-only effect, or effect the other way, or a change in a side signal; the % refers to the signal ratio; also: potency is read from the fitted curve at half-maximal effect; % is scaled to controls: 0 for no effect and ±100 for the full control effect
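S3 HeLa stable clones carrying a lamin A-EGFP splicing minigene plus DsRed2 were seeded at 600 cells/well in Opti-MEM with 2% FBS, pin-dosed and incubated 48 h at 37°C. Acumen cytometry (488 nm) gave the GFP/RFP total-intensity ratio.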
Sfp PPTase inh: inhibitors of Bacillus subtilis Sfp phosphopantetheinyl transferase; Q9F4F7; Biochemical Sfp PPTase activity, qHTS; Potency, µM, inactives show max response, negative = inhibition, actives largely listed as inhibitors; hit rate 3.5% among 310,000; AID 1490; active means well fitted inhibition curve with a large enough effect; inconclusive means small, poorly fitted or top-dose-only effect, or another doubt; inactive means no such curve, though single readings can be large or run the other way;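 further: the enzyme is Sfp with the accession as filed and its product quenches rhodamine fluorescence; potency means the concentration at half of the fitted maximal effect; 0% = enzyme reaction without inhibitor and -100% = no enzyme wells; top concentration of the series not given in the record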
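Buffer: 50 mM Hepes-Na pH 7.6, 10 mM MgCl2, 0.01% Nonidet P-40, 0.01% BSA. Enzyme 15 nM, pre-exposed to compound 15 min; substrates then added and fluorescence change tracked over 30 min.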
KDM4E inh: blocks human JMJD2E demethylase activity; Potency, µM (series often up to 57.1 µM), for inactives: at the highest dose activity change, negative = inhibition, hits mostly inhibitors; 230,000 compounds, 1.6% hits; B2RXH2; JMJD2E catalytic domain, FDH-coupled NADH fluorescence (FDH is formaldehyde dehydrogenase);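 also: potency is read from the fitted curve at half-maximal effect; 0% = wells with enzyme and -100% = buffer wells without enzyme; nearly all actives have a fitted effect of over 50% in size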
G9a block: G9a (human) methyltransferase inhibition. Potency, µM (highest dose often 102 µM), for inactives: at the highest dose activity, negative = inhibition, usual class: inhibitors. G9a H3K9 monomethylation, AlphaScreen, 2 h. Q96KQ7. 350,000 compounds, 8.8% hits. AID 504332; also: potency is read from the fitted curve at half-maximal effect; % is scaled to controls: 0 for no effect and ±100 for the full control effect; nearly all actives have a fitted effect of over 75% in size
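Chemiluminescent proximity detection of H3K9 monomethylation, read after 10 min bead incubation in the dark. Reaction: 20 nM G9a, 500 nM biotin-H3K9 peptide, 20 uM SAM cofactor, 2 h, room temperature, following 15 min enzyme-compound preincubation.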
ALDH1A1 inh: inhibitors of human aldehyde dehydrogenase 1A1. Potency, µM (highest dose often 75.3 µM), inactives show top-dose activity, negative = inhibition, hits mostly inhibitors. AID 1030. Purified ALDH1A1, NADH fluorescence, propionaldehyde substrate. 220,000 compounds, 7.3% hits. P00352; active = well fitted inhibition curve with a large enough effect, not every such curve was filed as active; inconclusive = small, poorly fitted or top-dose-only effect, or another doubt; inactive = no such curve, though single readings can be large or run the other way;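 also: potency is read from the fitted curve at half-maximal effect; plate controls were no enzyme wells and a reference inhibitor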
An asterisk follows results filed as active; ? = inconclusive; / = no result given; [ ] = dose if it differs, or a comment. Unless noted, calls follow the shape of the dose curve; as a rule, active = well fitted curve in the direction sought with a large enough effect; inconclusive = small, poorly fitted or top-dose-only effect, or another doubt; inactive = no such curve, though single readings can be large; an effect the other way counts as inactive or inconclusive.

Fields – miR-21 FLuc	LMNA splice mod	Sfp PPTase inh	KDM4E inh	G9a block	ALDH1A1 inh
> S=C(NCCN1CCOCC1)Nc1ccc(-c2nc3ccccc3[nH]2)cc1
→ 15%	?	-9%	?	45µM*	?
> Cc1ccc(C)c(N2CCN(C(=O)c3cn(CC(C)C)c(=O)c4c3c3ccccc3n4C)CC2)c1
→ -1%	/	/	/	?	/
> CCCNC(=O)[C@@H]1CCCN1C(=O)[C@@H]1Cc2ccccc2CN1
→ -4%	/	2%	/	-5%	/
> CCCN(C(=O)CCl)C1=CCCCC1
→ 11%	/	16%	-1%	9%	0.71µM*
> N#C/C(=C\c1ccc(-c2ccc(C(=O)O)cc2)o1)c1nc2ccccc2[nH]1
→ -18%	?	-12%	28µM*	-37%[59 µM]	-5%
> N#C/C(=C\c1ccc(N2CCOCC2)c([N+](=O)[O-])c1)c1nc2ccccc2[nH]1
→ -26%	8%	-9%	-4%	1%[59 µM]	?
> N#C/C(=C\c1ccc(N2CCOCC2)o1)c1nc2ccccc2[nH]1
→ -26%	33%	32µM*	?	?	?
> N#C/C(=C\c1ccc(-c2ccc(Cl)c(C(=O)O)c2)o1)c1nc2ccccc2[nH]1
→ -2%	/	/	/	-25%[59 µM]	/
> Cc1ccc(S(=O)(=O)CCC(=O)Oc2ccc(-c3nnco3)cc2)cc1
→ /	/	/	/	20µM*	/
> Cc1ccc(S(=O)(=O)N2CCN(C(=O)COc3ccc(-c4nnco4)cc3)CC2)cc1
→ -4%	-6%	11%	2%	-4%[59 µM]	5%
> Cc1ccc(S(=O)(=O)N2CCN(C(=O)COC(=O)CCOc3ccccc3)CC2)c(C)c1
→ /	/	/	/	-18%[12.7 µM]	/
> O=C1C2C3C=CC(C3=C3CCCCC3)C2C(=O)N1Cc1ccccc1 (stereo not drawn)
→ -3%	?	-29%	-22%	?	6.3µM*
> O=C1C2C3C=CC(C4CC34)C2C(=O)N1Cc1ccccc1 (stereo not drawn)
→ 0%	/	-1%	0%	8%	?
> NC(=S)N=Nc1c(O)n(Cc2ccc(Br)cc2)c2ccccc12
→ 13%	?	-14%	6%	2%	3.5µM*
> Cc1ccc2c(c1)c(N=NC(N)=S)c(O)n2Cc1ccccc1
→ -6%	6%	-3%	9%	43%[59 µM]	0.63µM*
> O=Nc1c(O)n(Cc2ccc(Cl)cc2)c2ccccc12
→ -6%	-23%	?	-2%	-1%[59 µM]	26%
> NC(=S)N=Nc1c(O)n(CCCl)c2ccc(Br)cc12
→ 18%	/	9%	9%	-7%	7%
> NC(=S)N=Nc1c(O)n(Cc2ccc(F)cc2)c2ccccc12
→ -13%	-8%	-10%	16%	6%	1.4µM*
> C/C(Cl)=C\Cn1c(O)c(N=NC(N)=S)c2cc(Br)ccc21
→ 21%	?	7%	32%	/	0.45µM*
> COc1ccccc1CN1C[C@@H]2C[C@@H](c3[nH]c4c(C)cccc4c3C)N3CCC[C@@]23C1=O
→ 2%	/	2%	-9%	45µM*	3%

3 neighbouring entries from above:
Fields – miR-21 FLuc	LMNA splice mod	Sfp PPTase inh	KDM4E inh	G9a block	ALDH1A1 inh
> NC(=S)N=Nc1c(O)n(Cc2ccc(F)cc2)c2ccccc12
→ -13%	-8%	-10%	16%	6%	1.4µM*
> C/C(Cl)=C\Cn1c(O)c(N=NC(N)=S)c2cc(Br)ccc21
→ 21%	?	7%	32%	/	0.45µM*
> COc1ccccc1CN1C[C@@H]2C[C@@H](c3[nH]c4c(C)cccc4c3C)N3CCC[C@@]23C1=O
→ 2%	/	2%	-9%	45µM*	3%

Record cards, as listed above:
Entry for NC(=S)N=Nc1c(O)n(CCCl)c2ccc(Br)cc12 = miR-21 FLuc: 18%; LMNA splice mod: /; Sfp PPTase inh: 9%; KDM4E inh: 9%; G9a block: -7%; ALDH1A1 inh: 7%
Entry for COc1ccccc1CN1C[C@@H]2C[C@@H](c3[nH]c4c(C)cccc4c3C)N3CCC[C@@]23C1=O = miR-21 FLuc: 2%; LMNA splice mod: /; Sfp PPTase inh: 2%; KDM4E inh: -9%; G9a block: 45µM*; ALDH1A1 inh: 3%

(cont.)
Fields – miR-21 FLuc	LMNA splice mod	Sfp PPTase inh	KDM4E inh	G9a block	ALDH1A1 inh
> COCc1ccc([C@@H]2C[C@H]3CN(Cc4cccnc4)C(=O)[C@]34CCCN24)o1
→ -1%	16%[46 µM]	10%	-4%	?	1%
> COCc1ccc([C@@H]2C[C@H]3CN(Cc4ccccc4C)C(=O)[C@]34CCCN24)o1
→ -15%	/	1%	1%	-20%	20µM*
> CC(=O)c1ccc(NS(=O)(=O)c2cccc(C(=O)Nc3ccccc3C(=O)O)c2)cc1
→ 15%	/	14%	/	/	/
> Cc1cc(OCC(=O)NNC(=S)NC(=O)c2ccc(Br)o2)ccc1Cl
→ -1%	/	9%	/	32µM*	/
> COCCN(C(=O)Cc1cccs1)c1nnc(-c2cccnc2)s1
→ -9%	?	4%	-1%	11%[59 µM]	?
> CCCCN(C(=O)Cc1cccs1)c1nnc(-c2cccnc2)s1
→ -69%	-3%	-11%	?	?	18µM*
> N#CCC(N)=C(C#N)C#N
→ 0%	?	-12%	7.9µM*	?	-15%
> Cc1ccc(NC(=O)N2CCN(Cc3nc4ccc(C)cc4o3)CC2)c(Cl)c1
→ 3%	3%[46 µM]	/	/	4%[59 µM]	/
> CN(C)C1(CNCC(O)c2ccccc2)CCCCC1 (stereo not drawn)
→ -1%	/	4%	/	20µM*	/
